Holding throughout (format): functional
The subject of test [1] is Staphylococcus aureus. As to the kind of experiment: Antibacterial activity against methicilin-resistant Staphylococcus aureus assessed as bacterial growth inhibition.
The test system of test [2] is Staphylococcus aureus. Description: Antimicrobial activity against cefoxitin/ciprofloxacin/clindamycin/erythromycin/tetracycline/thiamulin/trimethoprim-resistant Staphylococcus aureus assessed as reduction in bacterial growth incubated for 20 hrs by broth microdilution analysis. Summed up: (§1)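 MIC was determined by broth microdilution per CLSI/EUCAST. Inoculum was 10^5 CFU/mL in cation-adjusted Mueller-Hinton broth with TES, with compounds in DMSO, incubated 20 h at 35 °C. MIC was read visually as the lowest concentration without turbidity. Tetracycline was the plate control.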
(Broth dilution looks for growth in wells or tubes with falling amounts of substance.)

For test [3], the system named is Escherichia coli. Description: Antimicrobial activity against Escherichia coli N43 assessed as reduction in bacterial growth incubated for 20 hrs by broth microdilution analysis.
Test [4] has as its system Staphylococcus aureus. Description: Antimicrobial activity against cefoxitin/gentamicin/kanamycin/rifampicin/streptomycin/sulfamethoxazole/tetracycline-resistant Staphylococcus aureus assessed as reduction in bacterial growth incubated for 20 hrs by broth microdilution analysis. Summed up:
as §1

In brackets after ≈: the same amount, converted by molar mass.

`COc1ccc2nccc(CCN3CCC(NCc4cc(F)c(Br)c(F)c4)CC3)c2n1`: the MIC in test [1] came out at 0.016 µg/mL (≈ 0.0326 µM); in test [2], 0.033 µM (≈ 0.0162 µg/mL); in test [3], 0.016 µM (≈ 0.00786 µg/mL); in test [4], 0.033 µM (≈ 0.0162 µg/mL).

What is called MIC is the lowest concentration that inhibits growth of the organism.

The record behind these values is ChEMBL document CHEMBL5385870, “Amide containing NBTI antibacterials with reduced hERG inhibition, retained antimicrobial activity against gram-positive bacteria and in vivo efficacy” (Eur J Med Chem, 2023).
